In article PMC8667020:

Molecular target: T1, ASC^F136A (ASC-YFP mutant; F163A in the methods), Q9ULZ3
T1 chain: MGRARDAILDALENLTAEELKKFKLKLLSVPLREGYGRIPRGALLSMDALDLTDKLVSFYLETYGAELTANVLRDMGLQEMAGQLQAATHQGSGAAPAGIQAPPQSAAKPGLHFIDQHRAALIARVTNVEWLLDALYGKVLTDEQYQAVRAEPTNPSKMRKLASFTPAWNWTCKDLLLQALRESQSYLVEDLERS
Assay: flow cytometry of ASC-YFP speck formation in transfected HEK293 cells
Conditions: chain shown with the change, parent: est. 37, read off a plot

- other: ASC specks (%): 19%
B1: ASC-YFP, Q9ULZ3 F136A (protein)
chain: MGRARDAILDALENLTAEELKKFKLKLLSVPLREGYGRIPRGALLSMDALDLTDKLVSFYLETYGAELTANVLRDMGLQEMAGQLQAATHQGSGAAPAGIQAPPQSAAKPGLHFIDQHRAALIARVTNVEWLLDALYGKVLTDEQYQAVRAEPTNPSKMRKLASFTPAWNWTCKDLLLQALRESQSYLVEDLERS
